Data on two compounds can be found in patent US8563553B2, “Compounds and compositions as protein kinase inhibitors” (Novartis AG, priority 2009, dated 2013).

Chains of the proteins cited; added tags and fusions are not shown.
UniProt P15056, whole entry V600E: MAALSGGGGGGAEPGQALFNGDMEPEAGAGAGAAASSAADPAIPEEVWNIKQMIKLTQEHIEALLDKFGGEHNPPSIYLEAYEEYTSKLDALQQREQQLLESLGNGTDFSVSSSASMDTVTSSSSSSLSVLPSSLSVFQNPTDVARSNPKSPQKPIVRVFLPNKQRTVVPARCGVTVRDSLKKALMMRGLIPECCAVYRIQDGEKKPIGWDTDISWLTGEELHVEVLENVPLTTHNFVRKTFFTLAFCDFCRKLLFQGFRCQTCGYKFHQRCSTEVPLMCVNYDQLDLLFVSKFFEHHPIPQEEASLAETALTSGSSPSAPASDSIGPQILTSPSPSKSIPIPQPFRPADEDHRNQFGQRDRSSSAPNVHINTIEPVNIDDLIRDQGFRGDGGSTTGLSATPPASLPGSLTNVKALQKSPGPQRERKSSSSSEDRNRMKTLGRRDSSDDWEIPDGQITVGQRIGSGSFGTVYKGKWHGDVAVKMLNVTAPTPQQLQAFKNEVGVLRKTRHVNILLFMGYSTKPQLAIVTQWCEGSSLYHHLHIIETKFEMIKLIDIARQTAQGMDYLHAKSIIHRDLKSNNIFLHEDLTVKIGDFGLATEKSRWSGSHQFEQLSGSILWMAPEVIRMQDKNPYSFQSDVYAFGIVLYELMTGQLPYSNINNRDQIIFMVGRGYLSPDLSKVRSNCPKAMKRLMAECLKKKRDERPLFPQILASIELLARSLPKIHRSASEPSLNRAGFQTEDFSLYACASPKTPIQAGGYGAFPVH

The target of the assay is b-Raf(V600E) (Homo sapiens (Human), UniProt P15056, V600E). The assay can be described thus: Raf/Mek Amplified Luminescence Proximity Homogeneous Assay (Alpha Screen). Format: biochemical. Particulars: b-Raf(V600E) approximately 4 pM; biotinylated Mek, kinase dead approximately 10 nM; ATP 10 μM; pre-incubation 60 minutes; reaction 3 hours at room temperature; read-out: mut-B-RAF IC50. As to the method: Raf/Mek Amplified Luminescence Proximity Homogeneous Assay
Assay buffer: 50 mM Tris, pH 7.5, 15 mM MgCl2, 0.01% Bovine Serum Albumin (BSA), 1 mM dithiothreitol (DTT) Stop buffer: 60 mM ethylenediaminetetraacetic acid (EDTA), 0.01% Tween® 20 Bead buffer: 50 mM Tris, pH 7.5, 0.01% Tween® 20 […]
biotinylated Mek, kinase dead
Alpha Screen detection kit (available from PerkinElmer™, #6760617R)
Anti phospho-MEK1/2 (available from Cell Signaling Technology, Inc. #9121) 384 well assay plates (White Greiner® plates, #781207) […]
b-Raf(V600E) approximately 4 pM […]
biotinylated Mek, Kinase dead approximately 10 nM
Pre-incubation time with compounds 60 minutes at room temperature
Reaction time 1 or 3 hours at room temperature […]
The Raf kinase activity reaction was started by the addition of 10 μL per well of 2×ATP diluted in assay buffer. […] Phosphorylated product was measured using a rabbit anti-p-MEK (Cell Signaling, #9121) antibody and the Alpha Screen IgG (ProteinA) detection Kit (PerkinElmer #6760617R), by the addition of 30 μL to the well of a mixture of the antibody (1:2000 dilution) and detection beads (1:2000 dilution of both beads) in bead buffer (50 mM Tris, pH 7.5, 0.01% Tween20). […] A lid was placed on top of the plate and incubated for 1 hour at room temperature, then the luminescence was read on a PerkinElmer Envision instrument. […]

Regarding `COC(=O)N[C@@H](C)CNc1nccc(-c2nc(C3CC3)[nH]c2-c2cc(Cl)cc(NS(=O)(=O)C3CC3)c2F)n1` [Example 1Y, (S)-Methyl 1-(4-(5-(5-chloro-3-(cyclopropanesulfonamido)-2-fluorophenyl)-2-cyclopropyl-1H-imidazol-4-yl)pyrimidin-2-ylamino)propan-2-ylcarbamate], the half-inhibitory concentration (IC50) (as a rule, the concentration needed to halve the response being measured) stood at 180 pM. Take `CCCS(=O)(=O)Nc1c(F)ccc(-c2nc(C(C)(C)C)[nH]c2-c2ccnc(NC[C@H](C)NC(=O)OC)n2)c1F` [Example 4I, (S)-Methyl 1-(4-(2-tert-butyl-4-(2,4-difluoro-3-(propylsulfonamido)phenyl)-1H-imidazol-5-yl)pyrimidin-2-ylamino)propan-2-ylcarbamate]: the IC50 was found to be 120 pM.
